Source: paper PMC7575681 (EJNMMI Research, 2020)

^18F-deoxy-thiamine
biodistribution (ICR female mice, blood, 5 min): 3.87±0.51 IA%/g
biodistribution (ICR female mice, blood, 15 min): 1.59±0.42 IA%/g
biodistribution (ICR female mice, blood, 30 min): 0.89±0.12 IA%/g
biodistribution (ICR female mice, blood, 60 min): 0.52±0.05 IA%/g
biodistribution (ICR female mice, blood, 120 min): 0.39±0.07 IA%/g
biodistribution (ICR female mice, blood, 240 min): 0.16±0.01 IA%/g
biodistribution (ICR female mice, brain, 5 min): 1.62±0.35 IA%/g
biodistribution (ICR female mice, brain, 15 min): 1.18±0.29 IA%/g
biodistribution (ICR female mice, brain, 30 min): 0.97±0.24 IA%/g
biodistribution (ICR female mice, brain, 60 min): 0.72±0.06 IA%/g
biodistribution (ICR female mice, brain, 120 min): 0.52±0.06 IA%/g
biodistribution (ICR female mice, brain, 240 min): 0.14±0.01 IA%/g
biodistribution (ICR female mice, duodenum, 5 min, n=2): 23.89±14.71^a IA%/g
biodistribution (ICR female mice, duodenum, 15 min): 10.23±3.09 IA%/g
biodistribution (ICR female mice, duodenum, 30 min): 8.73±3.97 IA%/g
biodistribution (ICR female mice, duodenum, 60 min): 6.44±1.61 IA%/g
biodistribution (ICR female mice, duodenum, 120 min): 2.90±0.31 IA%/g
biodistribution (ICR female mice, duodenum, 240 min): 2.01±0.37 IA%/g
biodistribution (ICR female mice, fat, 5 min): 1.98±0.73 IA%/g
biodistribution (ICR female mice, fat, 15 min): 0.97±0.04 IA%/g
biodistribution (ICR female mice, fat, 30 min): 0.44±0.07 IA%/g
biodistribution (ICR female mice, fat, 60 min): 0.35±0.03 IA%/g
biodistribution (ICR female mice, fat, 120 min): 0.24±0.02 IA%/g
biodistribution (ICR female mice, fat, 240 min): 0.21±0.03 IA%/g
biodistribution (ICR female mice, fumur, 5 min): 4.49±1.07 IA%/g
biodistribution (ICR female mice, fumur, 15 min): 2.97±0.82 IA%/g
biodistribution (ICR female mice, fumur, 30 min): 2.68±0.80 IA%/g
biodistribution (ICR female mice, fumur, 60 min): 4.82±0.79 IA%/g
biodistribution (ICR female mice, fumur, 120 min): 2.16±0.37 IA%/g
biodistribution (ICR female mice, fumur, 240 min): 2.06±0.07 IA%/g
biodistribution (ICR female mice, heart, 5 min): 3.98±0.92 IA%/g
biodistribution (ICR female mice, heart, 15 min): 1.46±0.36 IA%/g
biodistribution (ICR female mice, heart, 30 min): 0.89±0.18 IA%/g
biodistribution (ICR female mice, heart, 60 min): 0.48±0.01 IA%/g
biodistribution (ICR female mice, heart, 120 min): 0.36±0.07 IA%/g
biodistribution (ICR female mice, heart, 240 min): 0.16±0.02 IA%/g
biodistribution (ICR female mice, kidney, 5 min, n=2): 42.35±2.82^a IA%/g
biodistribution (ICR female mice, kidney, 15 min): 8.47±1.56 IA%/g
biodistribution (ICR female mice, kidney, 30 min): 6.18±1.18 IA%/g
biodistribution (ICR female mice, kidney, 60 min): 2.09±0.24 IA%/g
biodistribution (ICR female mice, kidney, 120 min): 1.67±0.63 IA%/g
biodistribution (ICR female mice, kidney, 240 min): 0.50±0.22 IA%/g
biodistribution (ICR female mice, liver, 5 min, n=2): 17.60±6.41^a IA%/g
biodistribution (ICR female mice, liver, 15 min): 8.33±1.96 IA%/g
biodistribution (ICR female mice, liver, 30 min): 4.09±0.82 IA%/g
biodistribution (ICR female mice, liver, 60 min): 2.00±0.07 IA%/g
biodistribution (ICR female mice, liver, 120 min): 1.59±0.49 IA%/g
biodistribution (ICR female mice, liver, 240 min): 0.42±0.08 IA%/g
biodistribution (ICR female mice, lung, 5 min, n=2): 9.33±3.12^a IA%/g
biodistribution (ICR female mice, lung, 15 min): 3.34±0.93 IA%/g
biodistribution (ICR female mice, lung, 30 min): 2.76±0.33 IA%/g
biodistribution (ICR female mice, lung, 60 min): 1.89±0.10 IA%/g
biodistribution (ICR female mice, lung, 120 min): 1.31±0.39 IA%/g
biodistribution (ICR female mice, lung, 240 min): 0.58±0.09 IA%/g
biodistribution (ICR female mice, muscle, 5 min): 4.80±1.53 IA%/g
biodistribution (ICR female mice, muscle, 15 min): 1.92±0.28 IA%/g
biodistribution (ICR female mice, muscle, 30 min): 1.55±0.47 IA%/g
biodistribution (ICR female mice, muscle, 60 min): 1.43±0.22 IA%/g
biodistribution (ICR female mice, muscle, 120 min): 0.80±0.17 IA%/g
biodistribution (ICR female mice, muscle, 240 min): 0.71±0.28 IA%/g
biodistribution (ICR female mice, ovary, 5 min, n=2): 4.92±1.44^a IA%/g
biodistribution (ICR female mice, ovary, 15 min): 2.78±0.52 IA%/g
biodistribution (ICR female mice, ovary, 30 min): 2.88±1.26 IA%/g
biodistribution (ICR female mice, ovary, 60 min): 1.29±0.19 IA%/g
biodistribution (ICR female mice, ovary, 120 min): 0.84±0.28 IA%/g
biodistribution (ICR female mice, ovary, 240 min): 0.30±0.04 IA%/g
biodistribution (ICR female mice, pancreas, 5 min): 10.46±3.61 IA%/g
biodistribution (ICR female mice, pancreas, 15 min): 3.86±0.91 IA%/g
biodistribution (ICR female mice, pancreas, 30 min): 2.58±0.77 IA%/g
biodistribution (ICR female mice, pancreas, 60 min): 1.22±0.09 IA%/g
biodistribution (ICR female mice, pancreas, 120 min): 0.83±0.26 IA%/g
biodistribution (ICR female mice, pancreas, 240 min): 0.33±0.05 IA%/g
biodistribution (ICR female mice, spleen, 5 min): 4.90±2.28 IA%/g
biodistribution (ICR female mice, spleen, 15 min): 2.62±0.53 IA%/g
biodistribution (ICR female mice, spleen, 30 min): 2.08±0.51 IA%/g
biodistribution (ICR female mice, spleen, 60 min): 1.26±0.12 IA%/g
biodistribution (ICR female mice, spleen, 120 min): 0.56±0.30 IA%/g
biodistribution (ICR female mice, spleen, 240 min): 0.22±0.03 IA%/g
biodistribution (ICR female mice, stomach, 5 min): 7.68±2.27 IA%/g
biodistribution (ICR female mice, stomach, 15 min): 3.36±0.67 IA%/g
biodistribution (ICR female mice, stomach, 30 min): 2.24±0.43 IA%/g
biodistribution (ICR female mice, stomach, 60 min): 2.33±0.38 IA%/g
biodistribution (ICR female mice, stomach, 120 min): 1.37±0.10 IA%/g
biodistribution (ICR female mice, stomach, 240 min): 0.45±0.09 IA%/g
biodistribution (ICR male mice, blood, 5 min): 2.39±0.60 IA%/g
biodistribution (ICR male mice, blood, 15 min): 1.53±0.36 IA%/g
biodistribution (ICR male mice, blood, 30 min): 0.86±0.05 IA%/g
biodistribution (ICR male mice, blood, 60 min): 0.39±0.03 IA%/g
biodistribution (ICR male mice, blood, 120 min): 0.30±0.01 IA%/g
biodistribution (ICR male mice, blood, 240 min): 0.12±0.004 IA%/g
biodistribution (ICR male mice, brain, 5 min): 1.38±0.46 IA%/g
biodistribution (ICR male mice, brain, 15 min): 1.51±0.16 IA%/g
biodistribution (ICR male mice, brain, 30 min): 0.88±0.15 IA%/g
biodistribution (ICR male mice, brain, 60 min): 0.48±0.05 IA%/g
biodistribution (ICR male mice, brain, 120 min): 0.41±0.06 IA%/g
biodistribution (ICR male mice, brain, 240 min): 0.10±0.005 IA%/g
biodistribution (ICR male mice, duodenum, 5 min): 17.98±5.99 IA%/g
biodistribution (ICR male mice, duodenum, 15 min): 11.24±0.49 IA%/g
biodistribution (ICR male mice, duodenum, 30 min): 6.34±1.02 IA%/g
biodistribution (ICR male mice, duodenum, 60 min): 1.75±0.23 IA%/g
biodistribution (ICR male mice, duodenum, 120 min): 2.22±0.74 IA%/g
biodistribution (ICR male mice, duodenum, 240 min): 1.94±0.41 IA%/g
biodistribution (ICR male mice, fat, 5 min): 1.67±0.61 IA%/g
biodistribution (ICR male mice, fat, 15 min): 1.61±0.93 IA%/g
biodistribution (ICR male mice, fat, 30 min): 0.49±0.11 IA%/g
biodistribution (ICR male mice, fat, 60 min): 0.44±0.08 IA%/g
biodistribution (ICR male mice, fat, 120 min): 0.40±0.05 IA%/g
biodistribution (ICR male mice, fat, 240 min): 0.29±0.08 IA%/g
biodistribution (ICR male mice, fumur, 5 min): 5.60±2.73 IA%/g
biodistribution (ICR male mice, fumur, 15 min): 2.95±0.44 IA%/g
biodistribution (ICR male mice, fumur, 30 min): 3.15±0.16 IA%/g
biodistribution (ICR male mice, fumur, 60 min): 3.98±0.94 IA%/g
biodistribution (ICR male mice, fumur, 120 min): 3.03±0.07 IA%/g
biodistribution (ICR male mice, fumur, 240 min): 1.82±0.22 IA%/g
biodistribution (ICR male mice, heart, 5 min): 2.31±0.55 IA%/g
biodistribution (ICR male mice, heart, 15 min): 2.17±0.46 IA%/g
biodistribution (ICR male mice, heart, 30 min): 0.84±0.14 IA%/g
biodistribution (ICR male mice, heart, 60 min): 0.44±0.08 IA%/g
biodistribution (ICR male mice, heart, 120 min): 0.23±0.02 IA%/g
biodistribution (ICR male mice, heart, 240 min): 0.16±0.02 IA%/g
biodistribution (ICR male mice, kidney, 5 min, n=2): 12.61±2.42^a IA%/g
biodistribution (ICR male mice, kidney, 15 min): 10.94±2.26 IA%/g
biodistribution (ICR male mice, kidney, 30 min): 3.62±0.24 IA%/g
biodistribution (ICR male mice, kidney, 60 min): 1.13±0.20 IA%/g
biodistribution (ICR male mice, kidney, 120 min): 0.63±0.05 IA%/g
biodistribution (ICR male mice, kidney, 240 min): 0.19±0.03 IA%/g
biodistribution (ICR male mice, liver, 5 min): 13.86±4.17 IA%/g
biodistribution (ICR male mice, liver, 15 min): 8.24±0.60 IA%/g
biodistribution (ICR male mice, liver, 30 min): 2.58±0.31 IA%/g
biodistribution (ICR male mice, liver, 60 min): 1.06±0.10 IA%/g
biodistribution (ICR male mice, liver, 120 min): 0.97±0.06 IA%/g
biodistribution (ICR male mice, liver, 240 min): 0.32±0.02 IA%/g
biodistribution (ICR male mice, lung, 5 min, n=2): 3.96±0.79^a IA%/g
biodistribution (ICR male mice, lung, 15 min): 7.05±1.41 IA%/g
biodistribution (ICR male mice, lung, 30 min): 2.47±1.49 IA%/g
biodistribution (ICR male mice, lung, 60 min): 1.23±0.20 IA%/g
biodistribution (ICR male mice, lung, 120 min): 0.75±0.08 IA%/g
biodistribution (ICR male mice, lung, 240 min): 1.18±0.43 IA%/g
biodistribution (ICR male mice, muscle, 5 min): 1.43±0.12 IA%/g
biodistribution (ICR male mice, muscle, 15 min): 1.89±0.16 IA%/g
biodistribution (ICR male mice, muscle, 30 min): 1.68±0.42 IA%/g
biodistribution (ICR male mice, muscle, 60 min): 2.21±0.79 IA%/g
biodistribution (ICR male mice, muscle, 120 min): 0.82±0.08 IA%/g
biodistribution (ICR male mice, muscle, 240 min): 0.47±0.10 IA%/g
biodistribution (ICR male mice, pancreas, 5 min): 6.92±2.62 IA%/g
biodistribution (ICR male mice, pancreas, 15 min): 5.55±0.48 IA%/g
biodistribution (ICR male mice, pancreas, 30 min): 1.93±0.46 IA%/g
biodistribution (ICR male mice, pancreas, 60 min): 0.66±0.06 IA%/g
biodistribution (ICR male mice, pancreas, 120 min): 0.47±0.03 IA%/g
biodistribution (ICR male mice, pancreas, 240 min): 0.44±0.12 IA%/g
biodistribution (ICR male mice, spleen, 5 min): 2.40±0.56 IA%/g
biodistribution (ICR male mice, spleen, 15 min): 3.52±0.43 IA%/g
biodistribution (ICR male mice, spleen, 30 min): 1.44±0.23 IA%/g
biodistribution (ICR male mice, spleen, 60 min): 0.66±0.10 IA%/g
biodistribution (ICR male mice, spleen, 120 min): 0.47±0.05 IA%/g
biodistribution (ICR male mice, spleen, 240 min): 0.24±0.02 IA%/g
biodistribution (ICR male mice, stomach, 5 min): 5.48±2.05 IA%/g
biodistribution (ICR male mice, stomach, 15 min): 6.68±1.47 IA%/g
biodistribution (ICR male mice, stomach, 30 min): 2.78±0.87 IA%/g
biodistribution (ICR male mice, stomach, 60 min): 1.52±0.23 IA%/g
biodistribution (ICR male mice, stomach, 120 min): 1.35±0.33 IA%/g
biodistribution (ICR male mice, stomach, 240 min): 0.97±0.12 IA%/g
biodistribution (ICR male mice, testicle, 5 min): 1.23±0.31 IA%/g
biodistribution (ICR male mice, testicle, 15 min): 1.24±0.13 IA%/g
biodistribution (ICR male mice, testicle, 30 min): 0.87±0.05 IA%/g
biodistribution (ICR male mice, testicle, 60 min): 0.32±0.08 IA%/g
biodistribution (ICR male mice, testicle, 120 min): 0.58±0.07 IA%/g
biodistribution (ICR male mice, testicle, 240 min): 0.23±0.01 IA%/g

Read-outs that look alike come from different tables or passages of the source. Marks after values point to notes of the source that are not given here.
